# Screening data deposited in PubChem BioAssay by several laboratories.
# Yeast UUG start = alters start codon recognition fidelity in yeast. S. cerevisiae UUG-firefly luciferase reporter, luminescence/redox ratio. activity score, % at 18.7 µM. 0.13% of 350,000 active. AID 602363;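 active = replicate mean at a twofold rise or more, about +100% in these data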;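 also: firefly luciferase made from a UUG start codon reports start codon fidelity; reporter light over untreated wells divided by growth signal over untreated wells; some hits fall short of that in this replicate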
# HDAC3 inhib = human HDAC3 inhibition | recombinant HDAC3, fluorogenic peptide/trypsin coupled, fluorescence | inhibition, % at 8.3 µM | 320,000 compounds, 0.15% hits | AID 2718; in the data active means inhibition above about 26%, passing the limit was not always enough
# MC4R antag cAMP = blocks human MC4R cAMP signaling | MC4R-expressing cells, MTII-stimulated cAMP, LANCE TR-FRET | inhibition, % at 6.5 µM | 360,000 compounds, 0.48% hits | AID 540295;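 active means inhibition above its plate's cutoff, the mean of tested wells on that plate plus 3 SD, cut at about 29% in these data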;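 further: 0% = Melanotan II alone and 100% = Melanotan II plus saturating MCL0020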
#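 Test system: U2OS cells stably expressing human melanocortin 4 receptor (MC4R); also added: Melanotan II challenge; compound: 6.5 µM single dose; timing: 30-min compound preincubation, 1-h Melanotan II challenge, 1-h detection, room temperature; signal: Eu-cAMP/anti-cAMP TR-FRET, emission 671 nm; repeats: one well per compound, no replicates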
# NALP1 inh = NALP1 inhibition | S. cerevisiae NALP1/ASC/caspase-1 growth, X-gal OD620, 72 h | inhibition, % at 10 µM | 280,000 compounds, 0.61% hits | AID 2071; in the data active means inhibition mostly above about 24%, no sharp cut-off; inactive means mostly below about 32%
# ALR H2O2 inh = human ALR oxidase inhibition via reduced H2O2. 290,000 tested, 3.8% active. AID 485317. purified ALR, DTT oxidation, H2O2 HRP-luminol luminescence. inhibition, % (test concentration not listed). P55789;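 active = mean and each replicate at 75% or more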;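 also: stock transfer was 7.5 nL into about 7.5 µL; 0% = neutral wells and 100% = wells with inactivated enzyme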
# MC4R barr agon = agonists of human melanocortin 4 receptor (MC4R) beta-arrestin | activation, % at 8.9 µM | 360,000 compounds, 0.98% hits | AID 540308 | P32245 | U2OS MC4R beta-arrestin complementation, luminescence; percent of melanotan II response, DMSO zero;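 active means activation above a per-plate cutoff, the mean activation of sample wells on that plate plus 3 SD, cut at about 8% in these data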
# The depositor's hits bear a star; · = no result. An excerpt weighted towards active compounds, which were near 4.2% of everything screened.
# Sample of the layout, 2 compounds:
SMILES,Yeast UUG start,HDAC3 inhib,MC4R antag cAMP,NALP1 inh,ALR H2O2 inh,MC4R barr agon
C=CCN(c1ccccc1)S(=O)(=O)c1cc2c(cc1C)N(C)CCO2,-10,·,-2,6,97*,0
CN1C(=O)c2cc(NC(=O)c3cccs3)ccc2OC[C@H]2O[C@H](CC(=O)NCC(F)(F)F)CC[C@@H]21,1,·,·,·,·,·

# All compounds of this part, previewed entries included:
SMILES,Yeast UUG start,HDAC3 inhib,MC4R antag cAMP,NALP1 inh,ALR H2O2 inh,MC4R barr agon
C=CCN(c1ccccc1)S(=O)(=O)c1cc2c(cc1C)N(C)CCO2,-10,·,-2,6,97*,0
CN1C(=O)c2cc(NC(=O)c3cccs3)ccc2OC[C@H]2O[C@H](CC(=O)NCC(F)(F)F)CC[C@@H]21,1,·,·,·,·,·
COc1ccc2c3c([nH]c2c1)C(C)N(C(C)=O)CC3 (stereo unspecified),-6,-4,-5,3,97*,0
COc1ccc2c3c([nH]c2c1)C(C)N(CCC(=O)NN)CC3 (stereo unspecified),2,14,6,9,59,-1
O=C(C[C@@H]1CC[C@H]2[C@@H](COC[C@@H](O)CN2C(=O)c2ccccc2F)O1)NCc1ccc(Cl)cc1,5,·,·,·,·,·
COc1cc(C(=O)ON=C2C(C)=CC(=O)C=C2C)cc(OC)c1OC,-18,-5,4,-7,99*,-3
COc1cc(C(=O)O/N=C2/C=C(C)C(=O)C=C2C)cc(OC)c1OC,·,35*,13,·,26,-1
O=C(NCC[C@@H]1CC[C@@H](NC(=O)C2CCCCC2)[C@@H](CO)O1)c1cnccn1,-2,·,·,·,·,·
C[C@H](CO)N1C[C@H](C)[C@@H](CN(C)Cc2ccc(C(F)(F)F)cc2)OCCCC[C@H](C)Oc2ccc(NC(=O)Cc3ccccc3)cc2C1=O,2,·,·,·,·,·
CC(C)(C)C(=O)c1sc(Nc2ccccc2)nc1N,0,14,16,39,97*,0
COCC(=O)Nc1ccc2c(c1)C(=O)N(C)C[C@H](OC)[C@H](C)CN(Cc1ccccc1)[C@@H](C)CO2,9,·,·,·,·,·
CNc1nnc(-c2cccc(N(C)C)c2)s1,-12,-7,-4,5,99*,-1
COCCn1c(=NC(=O)c2cc(Cl)sc2Cl)sc2cc(S(N)(=O)=O)ccc21,-13,5,17,35,-1,9.3*
CCOCCn1c(=NC(=O)c2cc(Cl)sc2Cl)sc2cc(S(N)(=O)=O)ccc21,·,4,·,44,3,·
CCCNC(=O)C[C@@H]1CC[C@H]2[C@@H](COc3ccc(NS(=O)(=O)c4ccccc4C)cc3C(=O)N2C)O1,7,·,·,·,·,·
C[C@H](CO)N1C[C@H](C)[C@@H](CN(C)C(=O)Nc2ccc(C(F)(F)F)cc2)OCCCC[C@H](C)Oc2ccc(NC(=O)Nc3ccc(F)cc3)cc2C1=O,-10,·,·,·,·,·
Cc1ccc(-n2c(N)cc(=O)nc2SCC(=O)N2CCN(c3ccccc3)CC2)cc1C,-7,-3,-3,9,68,-4
COc1ccc(-n2c(N)cc(=O)nc2SCC(=O)N2CCN(c3ccccc3)CC2)cc1,4,-2,10,28,99*,-2
COc1ccc(N2CCN(C(=O)CSc3nnc(-c4cccnc4)n3-c3ccccc3)CC2)cc1,-15,-5,3,-9,94*,-1
CCN(Cc1ccncc1)S(=O)(=O)c1ccc(C(C)=O)cc1,-14,3,3,8,90*,-2
COc1ccc(NC(=S)Nc2ncccc2C)c(OC)c1,-24,0,3,2,99*,-2
COc1ccc(NC(=S)Nc2ncccc2C)cc1OC,·,-2,-3,-1,83*,-1
S=c1[nH]nc(-c2ccc3ccccc3n2)o1,-16,1,10,-1,91*,1
CN(C)S(=O)(=O)Nc1ccc(NS(=O)(=O)N(C)C)c(S(=O)(=O)c2ccccc2)c1,-1,4,-1,27*,43,0
CN(C)S(=O)(=O)Nc1ccc2c(c1)Cc1ccccc1-2,-10,-1,0,7,5,2
# New compounds follow.
SMILES,Yeast UUG start,HDAC3 inhib,MC4R antag cAMP,NALP1 inh,ALR H2O2 inh,MC4R barr agon
COc1cccc(NC(=O)N(C)C[C@H]2Oc3cc(/C=C/c4ccccc4)ccc3S(=O)(=O)N([C@@H](C)CO)C[C@H]2C)c1,3,·,·,·,·,·
COc1cccc(/C=N/NC(=O)Cn2nc(C)c([N+](=O)[O-])c2C)c1O,-7,-12,11,22,88*,-5
COc1ccc2c3c(ccc2c1)C(=O)/C(=C/O)CC3,·,·,11,·,·,26*
COc1ccc2c(c1)CC/C(=C/c1ccncc1)C2=O,-10,5,2,37,-9,1
CCCC(=O)Nc1ccc2c(c1)OC[C@H](C)N(C(=O)CC)C[C@@H](C)[C@H](OC)CN(C)C2=O,5,·,·,·,·,·
CCCCN(CCCNC(=O)C1CCN(S(=O)(=O)CC)CC1)c1ccccc1,-1,4,3,-32,99*,0
CCCCN(CCCNC(=O)C1CCCN(S(=O)(=O)CCC)C1)Cc1ccccc1 (stereo unspecified),-12,1,10,22,·,-1
CCN(CCCNC(=O)C1CCN(S(=O)(=O)c2cnc[nH]2)CC1)c1cccc(C)c1,-17,-5,11,11,99*,3
CCN(CCNC(=O)C1CCN(S(=O)(=O)CC)CC1)c1ccccc1,·,0,0,·,99*,-1
Cc1ccc2c(c1)N(CCCC(=O)NCCCN1CCCCC1)C(=O)CO2,-14,3,13,-5,-18,0
CCN(CCCNC(=O)CCCN1C(=O)COc2ccc(C)cc21)c1cccc(C)c1,-19,5,3,1,98*,3
CO[C@H]1CN(C)C(=O)c2cc(NC(C)=O)ccc2OC[C@H](C)N(CCc2ccccc2)C[C@H]1C,0,·,·,·,·,·
CCN(CCNC(=O)C1CC(=O)N(CCc2ccccc2)C1)c1ccccc1 (stereo unspecified),-1,8,6,6,99*,-1
CCCN(CCC)CCCNC(=O)C1CCN(S(=O)(=O)c2cccc3nsnc23)CC1,-12,-12,3,26,2,-2
O=C(NCCc1ccccc1)C1CC(=O)N(CCc2ccccc2)C1 (stereo unspecified),-7,-1,-3,2,-12,-1
CCN(CCCNC(=O)C1CCCN(S(=O)(=O)CC)C1)c1cccc(C)c1 (stereo unspecified),3,2,3,2,99*,5
CCN(CCNC(=O)Cn1cc2c(n1)CCCC2)c1ccccc1,-7,3,2,30,99*,-1
CCN(CCNC(=O)C1CCN(S(=O)(=O)c2cccc3nsnc23)CC1)c1ccccc1,-2,3,3,-3,99*,-1
C[C@H]1CN([C@@H](C)CO)C(=O)c2cccc(NC(=O)Nc3cccc4ccccc34)c2O[C@H]1CN(C)C(=O)Nc1ccc2c(c1)OCO2,19,·,·,·,·,·
O=C(Cc1ccncc1)Nc1ccc2c(c1)[C@H]1C[C@H](CC(=O)N3CCCCC3)O[C@@H](CO)[C@H]1O2,-12,·,·,·,·,·
C[C@@H]1CN([C@@H](C)CO)C(=O)c2cc(NS(C)(=O)=O)ccc2O[C@@H](C)CCCCO[C@H]1CN(C)S(=O)(=O)c1ccc(Cl)cc1,11,·,·,·,·,·

# Single records, as listed above.
# COc1cccc(NC(=O)N(C)C[C@H]2Oc3cc(/C=C/c4ccccc4)ccc3S(=O)(=O)N([C@@H](C)CO)C[C@H]2C)c1 is listed as Yeast UUG start: 3; HDAC3 inhib: ·; MC4R antag cAMP: ·; NALP1 inh: ·; ALR H2O2 inh: ·; MC4R barr agon: ·
# CCN(Cc1ccncc1)S(=O)(=O)c1ccc(C(C)=O)cc1 is listed as Yeast UUG start: -14; HDAC3 inhib: 3; MC4R antag cAMP: 3; NALP1 inh: 8; ALR H2O2 inh: 90*; MC4R barr agon: -2
